# ASM inhibitor – human S-ASM enzyme inhibition; placental ASM, HMU-PC fluorogenic substrate, 60 min; 340,000 compounds, 0.006% hits; AID 504937; P17405; Potency, µM (top dose mostly 57.5 µM), for the others: at the top dose activity change, negative = inhibition, usual class: inhibitors
#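 Fluorescence read-out (Ex 386 nm, Em 447 nm) after stopping the reaction at pH 10. Enzyme: ASM from human placenta; substrate HMU-PC0, 9 uM final; 60 min, 37 °C. Compound preincubation 10 min, ambient temperature.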
# Rango complex inh – Rango-importin beta binding inhibition | Potency, µM (top dose mostly 92.2 µM), inactives show at the top dose inhibition of complex formation | Q14974 | Rango CFP/YFP FRET sensor + importin beta, 45 min | 340,000 compounds, 0.031% hits; calls by dose curve;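 further: 0% = DMSO wells and 100% = buffer wells lacking importin beta; nearly all actives have a fitted effect of over 15% in size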
#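 FRET biosensor (snurportin 1 IBB flanked by EYFP and cerulean), 50 nM, with compound 5 min, then 0.125 microM importin beta in PBS, 1 mM DTT, 0.02% Tween-20, 0.1% BSA. CFP/YFP ratio read after 45 min at room temperature; pre-read flags interference.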
# Abeta yeast res – restores growth of yeast expressing A-beta42 peptide; yeast expressing A-beta42, growth rescue, OD600, 48 h; response scale: 0% DMSO, 100% iron-clioquinol control; Potency, µM (titrated, usually from 46.1 µM), most hits filed as activators; 410,000 compounds, 0.063% hits; AID 1347071; further: nearly all actives have a fitted effect of over 55% in size
#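 Yeast A-beta toxicity model in growth medium with pinned compounds, 48 h at 30 C; growth read as absorbance at 600 nm. Normalized to FeCl3/clioquinol equimolar mix (positive) and DMSO (negative).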
# TDP43 rescue – rescues yeast growth from TDP-43 toxicity. AID 652104. Potency, µM (series often up to 46.1 µM), inactives show at the top dose growth rescue (activation), hits mostly activators. 410,000 compounds, 1.8% hits. TDP-43 expressing yeast growth rescue, BacTiter-Glo, 24 h; further: % of control where 0% means no effect; nearly all actives have a fitted effect of over 50% in size
#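 Readout is BacTiter-Glo luminescence of cell growth, so inhibitors register as activators. TDP-43-expressing yeast at OD600=0.02 in galactose medium, after raffinose pregrowth to mid-log, were incubated with compound for 24 hr at 30 deg C.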
# aSyn rescue – inhibitors of alpha-synuclein toxicity in yeast; Yeast expressing alpha-synuclein, growth rescue, BacTiter-Glo, 24 h; AID 652106; Potency, µM (highest dose often 46.1 µM), for inactives: top-dose growth rescue (activation), actives largely listed as activators; 370,000 compounds, 0.14% hits; further: % of control where 0% means no effect; nearly all actives have a fitted effect of over 65% in size
#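 Galactose-induced alpha-syn yeast (OD600=0.02, raffinose-pregrown) + pinned cpd, 24 hr, 30 deg C; growth by BacTiter-Glo luminescence. Growth restoration scores as activation.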
# Rango dissoc inh – inhibitors of RanGTP-induced Rango-importin beta complex dissociation; O95149+P62826; Biochemical FRET Rango-importin beta, RanGTP-induced dissociation; Potency, µM (doses to about 46.1 µM), without a hit: top-dose activity change, negative = inhibition; 340,000 compounds, 0.071% hits; AID 540253; calls by dose curve; further: % of control where 0% means no effect; nearly all actives have a fitted effect of over 45% in size
#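 Recombinant Rango FRET biosensor (EYFP–snurportin 1 IBB–cerulean CFP10) at 0.1 uM premixed with 0.25 uM importin beta in PBS, 1 mM DTT, 0.02% Tween-20, 0.1% BSA. Compound added 5 min; RanGTP-RCC1 (0.6 uM Ran, 2 mM GTP, 0.2 uM RCC1) then triggers release, read at 45 min.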
# The depositor's hits bear a star; i = inactive; ? = inconclusive; / = not tested or not shown; [ ] = dose if it differs, or a comment. This is a sample that favours compounds with a hit; in the whole collection about 2% have one here. Unless noted, the call rests on the fitted dose curve; in most records, active means well fitted curve in the direction sought with a large enough effect; inconclusive means small, poorly fitted or top-dose-only effect, or another doubt; inactive means no such curve, though single readings can be large; an effect the other way counts as inactive or inconclusive. Potency means the concentration at half of the fitted maximal effect.
# Key to letters – A = ASM inhibitor; B = Rango complex inh; C = Abeta yeast res; D = TDP43 rescue; E = aSyn rescue; F = Rango dissoc inh
1: CCOC(=O)c1sc2cccc(F)c2c1S(=O)(=O)Nc1ccccc1F
  A: /; B: /; C: i; D: 17.8µM*; E: /; F: /

2: O=C(Cc1ccccc1)Nc1ccc2[nH]ncc2c1
  A: -4.4%; B: 3.9%; C: i; D: 13.2%; E: 7.4%; F: 21.4%

3: O=C(COc1ccccc1)Nc1ccc2[nH]ncc2c1
  A: -5.4%; B: 0.4%; C: i; D: 1.4%; E: -0.5%; F: 11.9%

4: Cc1ccccc1OCC(=O)Nc1ccc2[nH]ncc2c1
  A: -3.3%; B: -3.3%; C: i; D: 12.6µM*; E: 8.8%; F: -2.7%

5: O=C(COc1ccc(Cl)cc1)Nc1ccc2[nH]ncc2c1
  A: 3.7%; B: 0.9%; C: i; D: 2.82µM*; E: -3.8%; F: 0.0%

6: CCOC(=O)C1CCCN(C(=O)c2cc3c(Cl)nc4ccccc4c3s2)C1 (stereo not given)
  A: /; B: /; C: i; D: ?; E: /; F: /

7: O=C(c1cc2c(Cl)nc3ccccc3c2s1)N1CCCCC1
  A: /; B: /; C: i; D: 35.5µM*; E: /; F: /

8: CCc1ccc(NCc2cccn2-c2nnc(N3CCCCCC3)s2)cc1
  A: /; B: /; C: i; D: -0.8%; E: /; F: /

9: Cc1ccc(Cl)cc1-n1ncc2c(NC3CCCCC3)ncnc21
  A: /; B: /; C: i; D: 12.6µM*; E: /; F: /

10: Clc1cccc(-n2ncc3c(NC4CCCCC4)ncnc32)c1
  A: /; B: /; C: i; D: 15.8µM*; E: /; F: /

11: O=C(Nc1ccc(F)cc1Cl)C1CCN(c2ncnc3c2nc2n3CCCCC2)CC1
  A: /; B: /; C: i; D: ?; E: /; F: /

12: Cc1ccc(C)c(N2CCN(C(=O)c3cc4cc5ccc(C)cc5nc4o3)CC2)c1
  A: /; B: /; C: i; D: 21.4%; E: /; F: /

13: CCOc1ccccc1NC(=O)N1CCc2c(sc3c2CCCC3)C1c1ccccc1 (stereo not given)
  A: /; B: /; C: i; D: 14.2%; E: /; F: /

14: O=C(CSC1=Nc2ccccc2C2=NC(CCC(=O)NC3CCCCC3)C(=O)N12)Nc1cccc(Cl)c1 (stereo not given)
  A: /; B: /; C: i; D: -11.9%; E: /; F: /

15: CCCC[n+]1c(/C=C/c2ccc(N(C)C)cc2)sc2ccccc21
  A: /; B: /; C: /; D: /; E: -55.9%; F: /

16: COc1cccc(OCC(=O)NC2CC(=O)N(c3cccc(OC)c3)C2)c1 (stereo not given)
  A: /; B: /; C: i; D: 9.5%; E: /; F: /

17: COc1cccc(N2CC(NC(=O)COc3ccc4ccccc4c3)CC2=O)c1 (stereo not given)
  A: /; B: /; C: ?; D: 14.1µM*; E: /; F: /

18: FC(F)(F)c1nc(Sc2ncccc2C(F)(F)F)n[nH]1
  A: -4.1%; B: -3.0%; C: i; D: 12.6µM*; E: -11.7%; F: -9.7%

19: FC(F)(F)c1ccnc(Sc2n[nH]c(C(F)(F)F)n2)c1
  A: -0.7%; B: 2.4%; C: i; D: -82.7%; E: -15.4%; F: 2.3%

20: Cc1ccc(C)c(OCCn2cc(/C=C(\C#N)C(=O)NCc3ccco3)c3ccccc32)c1
  A: 63.1%; B: ?; C: i; D: 0.0%; E: -0.4%; F: 4.11µM*

21: Cc1cc(NCc2ccccc2)nc(-c2ccccc2O)n1
  A: 22.0%; B: 3.4%; C: i; D: 11.2µM*; E: -11.6%; F: -1.2%

22: Cc1ccc(C)c(Nc2cc(C)nc(-c3ccccc3O)n2)c1
  A: -15.0%; B: 1.3%; C: i; D: 14.1µM*; E: -17.5%; F: 23.8%

23: Cc1cc(Nc2ccccc2Cl)nc(-c2ccccc2O)n1
  A: -26.9%; B: 2.9%; C: ?; D: ?; E: -4.6%; F: -2.9%

24: CN(Cc1ccccc1)C(=O)c1cc(-c2cccc(Cl)c2)on1
  A: /; B: /; C: i; D: ?; E: /; F: /

25: O=C(CN1CCCc2ccccc21)NCCc1ccc(Cl)cc1
  A: -3.5%; B: 0.0%; C: i; D: 14.1µM*; E: 5.0%; F: -7.6%

26: O=C(NCCc1ccc(Cl)cc1)C1(c2ccccc2)CC1
  A: -0.5%; B: -0.1%; C: i; D: 14.1µM*; E: 15.6%; F: 0.4%

27: O=C(CN1CCCc2ccccc21)NCc1ccc2c(c1)OCO2
  A: 0.5%; B: 3.9%; C: i; D: 11.2µM*; E: 14.7%; F: 13.6%

28: O=C(CSc1nc2ccccc2o1)NCc1ccc2c(c1)OCO2
  A: -2.8%; B: -0.3%; C: i; D: 14.1µM*; E: 0.4%; F: 17.2%

29: CC(C)CN(CCNC(=O)c1cn(C)c2ccc(S(=O)(=O)N3CCCCCC3)cc2c1=O)CC(C)C
  A: /; B: /; C: i; D: -4.9%; E: /; F: /

30: O/N=C/c1cc(Br)ccc1OCc1ccc(F)cc1
  A: ?; B: ?; C: i; D: -74.0%; E: -15.1%; F: 16.4µM*

31: O/N=C/c1ccc(OCc2ccccc2)c(Cl)c1
  A: -1.6%; B: 4.3%; C: i; D: 22.4µM*; E: -5.3%; F: 3.7%

32: O/N=C/c1ccc(OCc2ccccc2)c(Br)c1
  A: -3.3%; B: -1.9%; C: i; D: 12.6µM*; E: -15.2%; F: -3.6%

33: COc1ccc(C)cc1NC(=O)C(=O)NCC(c1cccnc1)N1CCN(c2ccccc2F)CC1 (stereo not given)
  A: /; B: /; C: i; D: -10.2%; E: /; F: /

34: O=[N+]([O-])c1ccccc1/C=C/c1ccnc2ccccc12
  A: /; B: /; C: /; D: /; E: 2.6%; F: /

35: CCOC(=O)c1noc2ncn(Cc3ccc([N+](=O)[O-])cc3)c(=O)c12
  A: /; B: /; C: i; D: 20µM*; E: /; F: /

36: CCOC(=O)c1noc2nc(C)n(Cc3ccc([N+](=O)[O-])cc3)c(=O)c12
  A: /; B: /; C: i; D: 15.6%; E: /; F: /

37: CCOc1ccccc1CNC(=O)c1ccc(NC(=O)N2CCSc3ncccc32)cc1
  A: /; B: /; C: i; D: 8.5%; E: /; F: /

38: CCOC(=O)CN1C(=O)S/C(=C/c2ccc3c(c2)n(C)c(=O)n3C)C1=O
  A: 14.5%; B: -2.0%; C: i; D: 19.1%; E: 10.4%; F: 0.0%

39: CCOC(=O)CN1C(=O)S/C(=C/C=C/c2ccc(N(C)C)cc2)C1=O
  A: -14.8%; B: 5.8µM*; C: i; D: -1.8%; E: -18.4%; F: 11.8%

40: CCN(CC)C(=O)c1sc2nc(-c3ccccn3)[nH]c(=O)c2c1C
  A: 162.5%; B: 1.1%; C: i; D: -25.5%; E: 7.4%; F: -3.8%

41: Cc1sc2nc(-c3ccccn3)[nH]c(=O)c2c1-c1ccccc1
  A: 62.8%; B: -4.2%; C: i; D: 17.8µM*; E: ?; F: -5.5%

42: Cc1ccccc1CNC(=O)c1ccc2[nH]c(C)c(C)c2c1
  A: /; B: /; C: i; D: -0.2%; E: /; F: /

43: CN(C)CCN(Cc1ccccc1)S(=O)(=O)c1ccc2[nH]c(=O)ccc2c1
  A: /; B: /; C: i; D: 18.0%; E: -0.5%; F: /

44: N#Cc1cc(N)ccc1-n1cccc1
  A: 9.4%; B: 4.5%; C: i; D: 9.0%; E: 2.3%; F: -0.3%

45: N#Cc1ccncc1Sc1ccc(Cl)cc1
  A: -3.6%; B: -2.0%; C: i; D: 17.8µM*; E: 22.1%; F: -10.3%

46: N#Cc1cc(N)ccc1Sc1ccccc1
  A: 16.6%; B: -1.2%; C: i; D: 11.2µM*; E: 12.5%; F: 2.0%

47: N#Cc1cc(N)ccc1Sc1ccc(Cl)cc1
  A: 15.2%; B: 0.1%; C: i[9.22 µM]; D: 15.8µM*; E: 17.5%; F: 13.6%

48: Cc1nn(C)cc1C1C2=C(CC(C)(C)CC2=O)N(c2ccccc2)C2=C1C(=O)CC(C)(C)C2
  A: 216.6%; B: ?; C: i; D: 5.3%; E: 3.4%; F: 8.2µM*

49: O=C(O)/C=C/C(=O)Nc1cccc2c1-c1ccccc1C2=O
  A: 2.3%; B: -0.8%; C: i; D: 20µM*; E: -13.7%; F: 1.9%

50: CCN1CCN(c2nnc(-n3cccc3C(=O)NCc3ccccc3OC)s2)CC1
  A: /; B: /; C: i; D: -5.3%; E: /; F: /

51: O=S(=O)(NCc1csc(-c2cccs2)n1)c1cccc(C(F)(F)F)c1
  A: -5.2%; B: -2.7%; C: i; D: 17.8µM*; E: 1.3%; F: -0.4%

# Entries listed so far printed as active in Rango complex inh.
nr | molecule | ASM inhibitor | Rango complex inh | Rango dissoc inh
39 | CCOC(=O)CN1C(=O)S/C(=C/C=C/c2ccc(N(C)C)cc2)C1=O | -14.8% | 5.8µM* | 11.8%

# Five compounds from above with just TDP43 rescue and aSyn rescue:
no.	Compound	TDP43 rescue	aSyn rescue
18	FC(F)(F)c1nc(Sc2ncccc2C(F)(F)F)n[nH]1	12.6µM*	-11.7%
4	Cc1ccccc1OCC(=O)Nc1ccc2[nH]ncc2c1	12.6µM*	8.8%
46	N#Cc1cc(N)ccc1Sc1ccccc1	11.2µM*	12.5%
17	COc1cccc(N2CC(NC(=O)COc3ccc4ccccc4c3)CC2=O)c1 (stereo not given)	14.1µM*	/
2	O=C(Cc1ccccc1)Nc1ccc2[nH]ncc2c1	13.2%	7.4%

# Screening results deposited in PubChem by National Center for Advancing Translational Sciences (NCATS).
